{"source": "patent US20210161997A1", "about": "“TREATING DISEASES VIA TARGETED MODULATION OF GENE SIGNALING NETWORKS” (Camp4 Therapeutics Corporation, priority 2018, published 2021)", "type_in_all_cases": "cell-based", "key": {"[1]": {"system": "UGT1A1", "assay": "RNA-seq of UGT1A1 expression in compound-treated primary human hepatocytes", "description": "(§1) Human hepatocytes were obtained from two donors from Massachusetts General Hospital, namely MGH54 and MGH63, and one donor from Lonza, namely HUM4111B. Cryopreserved hepatocytes were cultured in plating media for 16 hours, transferred to maintenance media for 4 hours. Cultured on serum-free media for 2 hours, then a compound was added. The hepatocytes were maintained on the serum-free media for 16 hours prior to gene expression analysis. Primary human hepatocytes were stored in the vapor phase of a liquid nitrogen freezer (about −130° C.).\n(§2) Human hepatocytes cultured as described above were plated in 24-well format, adding 375,000 cells per well in a volume of 500 ul plating medium. Four hours before treatment, cells were washed with PBS and the medium was changed to either: fresh maintenance medium (complete) or modified maintenance medium. […]\n(§3) For mRNA isolation and library prep, the NEBNext Poly(A) mRNA Magnetic Isolation Module and Directional Prep kit was used. RNA isolated from cells above was quantified, and prepared in […] of each sample in 50 μl of nuclease-free water. […]\n(§4) Standard QC were applied (read integrity, mapping statistics, library complexity, fragment bias) to remove unsatisfactory samples. […] RNA-seq signals were also normalized by read depth and visualized using the UCSC browser. […]"}, "[2]": {"system": "CPOX", "assay": "RNA-seq of CPOX expression in compound-treated primary human hepatocytes", "conditions": "significance FPKM ≥0.5, log 2(fold change) ≥0.3, q-value ≤0.05", "description": "as §1, §2, §3, §4"}, "[3]": {"system": "SLC37A4", "assay": "RNA-seq of SLC37A4 expression in compound-treated primary human hepatocytes", "description": "as §1\nHuman hepatocytes cultured as described above were plated in 24-well format, adding 375,000 cells per well in a volume of 500 ul plating medium. Four hours before treatment, cells were washed with PBS and the medium was changed to either: fresh maintenance medium (complete) or modified maintenance medium.\nCompound stocks were prepared at 1000× final concentration and added in a 2-step dilution to the medium to reduce risk of a compound precipitating out of solution when added to the cells, and to ensure reasonable pipetting volumes. […]\nas §3"}}, "data": [{"substance": "GZD824 Dimesylate", "values": [{"measurement": "UGT1A1 Fold Change (Log2)", "setting": "[1]", "result": 0.86, "unit": "Log2"}, {"measurement": "CPOX Fold change (Log2)", "setting": "[2]", "result": 0.37, "unit": "Log2"}, {"measurement": "SLC37A4 Fold Change (Log2)", "setting": "[3]", "result": 0.74, "unit": "Log2"}]}]}
